Data: ChEMBL document CHEMBL3822423 (J Med Chem, 2016)

By UniProt entry, the sequences of proteins in these tests, tags left out. Residues count along the entry.
UniProt P02768, 25-609 limits assumed: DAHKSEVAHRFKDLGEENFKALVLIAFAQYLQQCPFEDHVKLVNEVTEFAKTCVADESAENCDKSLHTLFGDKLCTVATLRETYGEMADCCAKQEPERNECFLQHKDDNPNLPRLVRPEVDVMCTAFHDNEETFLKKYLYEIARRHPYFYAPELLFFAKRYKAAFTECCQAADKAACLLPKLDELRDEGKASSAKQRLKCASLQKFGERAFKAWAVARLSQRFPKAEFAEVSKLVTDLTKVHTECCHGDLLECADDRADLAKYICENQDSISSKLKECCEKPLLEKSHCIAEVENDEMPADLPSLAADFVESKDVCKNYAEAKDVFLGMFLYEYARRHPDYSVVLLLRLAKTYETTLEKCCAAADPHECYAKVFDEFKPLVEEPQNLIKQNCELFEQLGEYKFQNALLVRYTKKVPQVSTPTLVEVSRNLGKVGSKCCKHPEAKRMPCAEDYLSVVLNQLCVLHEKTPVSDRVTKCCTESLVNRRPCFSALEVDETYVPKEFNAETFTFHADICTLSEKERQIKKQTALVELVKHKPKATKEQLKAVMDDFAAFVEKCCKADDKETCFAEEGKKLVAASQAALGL

Experiments:
Conditions in all cases: isolated protein
[1] = target: T1, Albumin (Homo sapiens, UniProt P02768); assay: Binding affinity to human serum albumin at pH 7.4 at 303 K by Stern-Volmer plot analysis
[2] = target: T1, Albumin; assay: Binding affinity to human serum albumin at pH 7.4 at 288 K by Stern-Volmer plot analysis
[3] = target: T1, Albumin; assay: Binding affinity to human serum albumin at pH 7.4 at 310 K by Stern-Volmer plot analysis

SMILES: CCn1cc(-c2csc(N)n2)c(=O)c2cc(N3CCCC3)c(Cl)cc21
- Ka [1]: 1.39 ×10⁵ L/mol
- Ka [2]: 1.47 ×10⁵ L/mol
- Ka [3]: 1.37 ×10⁵ L/mol
